Here are results for 1 compound from patent US4117136A, “Systemic antimicrobial quinolines for plant disease” (Sumitomo Chemical Company, Ltd., priority 1976, dated 1978).

The experiment concerns Soft Rot of Chinese Cabbage Caused by E. carotovora. It counts as in vivo, Erwinia carotovora (on Chinese cabbage). Conditions: sprayed at 500 ppm 16 hours after inoculation.

In the case of `CCn1cc(C(=O)O)c(=O)c2ccc(C)nc21` [Nalidixic acid, nalidixic acid, reference compound], the “Severity of Disease” value is given as 100.
